The values below come from patent US7799795B2, “Aryl nitrile compounds and compositions and their uses in treating inflammatory and related disorders” (Amgen Inc., priority 2005, dated 2010).

Experiment [1] concerns the target T1, CXCR3 (Homo sapiens, UniProt P49682).
T1 construct: ChemoCentryx
T1 sequence (P49682 1-368): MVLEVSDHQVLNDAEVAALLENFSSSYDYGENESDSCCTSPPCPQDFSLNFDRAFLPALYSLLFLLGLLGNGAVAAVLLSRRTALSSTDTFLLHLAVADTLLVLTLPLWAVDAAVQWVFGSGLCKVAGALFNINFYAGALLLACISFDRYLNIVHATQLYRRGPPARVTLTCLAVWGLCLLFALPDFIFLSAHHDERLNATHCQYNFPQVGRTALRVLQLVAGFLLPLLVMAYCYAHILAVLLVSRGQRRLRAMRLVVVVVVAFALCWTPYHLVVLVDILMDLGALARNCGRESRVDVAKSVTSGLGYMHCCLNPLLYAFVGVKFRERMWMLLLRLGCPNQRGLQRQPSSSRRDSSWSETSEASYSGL
Briefly: CXCR3 binding assay in binding buffer (125I-labelled chemokine, CXCR3-expressing cells). As to conditions: absence of human plasma. The method, then: (§1) CXCR3 Binding Assay: CXCR3 binding assays were conducted as previously described (see, e.g., Example 12 in WO 02/083143, incorporated herein by reference in its entirety), in the absence (“binding buffer”) or presence of human plasma. Unless otherwise noted, all reagents used are available from commercial sources (e.g., Sigma-Aldrich, St. Louis, Mo., USA). Test compounds are diluted in DMSO to a concentration that is 40-times the intended final assay concentration; 5 μL are transferred to each well of a 96-well flat-bottomed polypropylene plate (e.g., from Greiner, Inc.). CXCR3-expressing cells obtained from ChemoCentryx were used in the assays to generate the data set forth below. […] The plates are counted on a scintillation counter, such as a Packard TopCount. […] Data were analyzed using commercially available software (e.g., Excel from Microsoft, Prism from GraphPad Software Inc.).

For experiment [2], the target named is T1, CXCR3. Put plainly: CXCR3 binding assay in presence of human plasma. The procedure:
as §1

As to `CCS(=O)(=O)CCN(C(=O)Cc1ccc(F)c(C(F)(F)F)c1)[C@H](C)c1nc2ccccn2c(=O)c1-c1ccc(C#N)cc1`, the IC50 was found to be 2 nM at CXCR3 [1] and 17 nM at CXCR3 [2].

Take `CCS(=O)(=O)CCN(C(=O)Cc1ccc(F)c(C(F)(F)F)c1)[C@H](C)c1nc2ncccc2c(=O)n1-c1ccc(C#N)cc1` [drawing 192]: the IC50 came to 11 nM on CXCR3 [1] and 25 nM at CXCR3 [2].

A word on the IC50: it is the point on the concentration scale where inhibition reaches its midpoint.
